Experimental data: ChEMBL document CHEMBL3046632 (Med Chem Res, 2004)

Amino acid sequences for entries named in this document (tags omitted).
UniProt P19020, whole entry: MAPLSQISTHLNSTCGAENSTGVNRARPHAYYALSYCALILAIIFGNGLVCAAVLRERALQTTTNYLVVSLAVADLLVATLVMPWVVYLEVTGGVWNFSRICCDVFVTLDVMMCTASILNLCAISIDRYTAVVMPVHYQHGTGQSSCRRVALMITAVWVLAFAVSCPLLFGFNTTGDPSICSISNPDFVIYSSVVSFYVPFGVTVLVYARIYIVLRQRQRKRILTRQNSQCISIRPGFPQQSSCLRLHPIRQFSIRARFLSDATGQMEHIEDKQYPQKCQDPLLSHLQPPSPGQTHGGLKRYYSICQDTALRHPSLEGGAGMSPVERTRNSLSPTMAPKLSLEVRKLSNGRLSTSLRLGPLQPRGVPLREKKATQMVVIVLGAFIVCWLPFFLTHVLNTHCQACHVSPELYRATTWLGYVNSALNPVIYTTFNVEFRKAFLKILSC

Experiments:
D(3) dopamine receptor [1] = biological target: T1, D(3) dopamine receptor (Rattus norvegicus, UniProt P19020); assay: Binding affinity to Rattus norvegicus (rat) wild type dopamine D3 receptor transfected in african green monkey COS7 cells after 1 hr by beta scintillation counting; type: cell-based, COS-7
D(3) dopamine receptor [2] = biological target: T1, D(3) dopamine receptor; assay: Binding affinity to Rattus norvegicus (rat) chimeric dopamine D3 trunk/D3 tail receptor transfected in african green monkey COS7 cells after 1 hr by beta scintillation counting; type: cell-based, COS-7

Kd (D(3) dopamine receptor [1]): 64 pM
Kd (D(3) dopamine receptor [2]): 60 pM
Compound: CNc1cc(OC)c(C(=O)NC2CCN(Cc3ccccc3)C2C)cc1Cl (configuration not stated) [NEMONAPRIDE]
